Test results from article PMC2873203 (Journal of labelled compounds & radiopharmaceuticals, 2010).

Sequences of proteins named here, by UniProt entry; tags and fusion partners are left off. Residues count along the entry.
UniProt Q9WTR4, 1-597: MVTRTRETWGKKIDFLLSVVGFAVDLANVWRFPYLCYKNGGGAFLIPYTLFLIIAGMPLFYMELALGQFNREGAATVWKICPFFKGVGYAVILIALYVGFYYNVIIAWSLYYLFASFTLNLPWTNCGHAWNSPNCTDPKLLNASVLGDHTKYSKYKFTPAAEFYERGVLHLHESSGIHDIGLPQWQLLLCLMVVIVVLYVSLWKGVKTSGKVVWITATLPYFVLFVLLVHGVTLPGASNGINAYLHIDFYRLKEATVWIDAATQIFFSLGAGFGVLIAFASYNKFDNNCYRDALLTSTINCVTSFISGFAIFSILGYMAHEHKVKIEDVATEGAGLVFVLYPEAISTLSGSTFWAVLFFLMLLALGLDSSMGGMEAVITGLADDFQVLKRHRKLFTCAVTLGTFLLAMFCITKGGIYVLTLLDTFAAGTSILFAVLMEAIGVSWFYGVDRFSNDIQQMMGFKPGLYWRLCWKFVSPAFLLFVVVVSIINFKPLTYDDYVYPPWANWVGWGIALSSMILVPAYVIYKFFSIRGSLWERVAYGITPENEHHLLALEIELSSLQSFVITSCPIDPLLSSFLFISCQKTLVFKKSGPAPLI

Target: norepinephrine transporter (NET) (Rattus norvegicus, UniProt Q9WTR4)
Test: 3H-nisoxetine radioligand competition in rat brain membrane homogenates
Assay type: binding

CNCCC(Oc1ccccc1OC)c1ccccc1 (stereo not shown) [compound 1, nisoxetine]
Ki: 8.02 nM
